# Reference: publication PMC5360572 (2017)
# B1: human PD-L2 Ig fusion protein [human] / full-length human PD-1, wild type, on HEK293 cells [human] (parent complex)
# chain 1: LFTVTVPKELYIIEHGSNVTLECNFDTGSHVNLGAITASLQKVENDTSPHRERATLLEEQLPLGKASFHIPQVQVRDEGQYQCIIIYGVAWDYKYLTLKVKASYRKINTHILKVPETDEVELTCQATGYPLAEVSWPNVSVPANTSHSRTPEGLYQVTSVLRLKPPPGRNFSCVFWNTHVRELTLASIDLQSQMEPRTHPT
# chain 2: LDSPDRPWNPPTFSPALLVVTEGDNATFTCSFSNTSESFVLNWYRMSPSNQTDKLAAFPEDRSQPGQDCRFRVTQLPNGRDFHMSVVRARRNDSGTYLCGAISLAPKAQIKESLRAELRVTERRAEVPTAHPSPSPRPAGQFQTLVVGVVGGLLGSLVLLVWVLAVICSRAARGTIGARRTGQPLKEDPSAVPVFSVDYGELDFQWREKTPEPPVPCVPEQTEYATIVFPSGMGTSSPARRGSADGPRSAQPLRPEDGHCSWPL
# Variants of: B1
# Test: flow cytometry on cells; 0.5 μg/ml ligand concentration; read off a plot
row,Variant,percent of parent [% WT]
1,chain 2 LDSPDRPWNPPTFSPALLVVTEGDNATFTCSFSNTSESFVLNWYRMSPSNQTDKLAAFPEDRSQPGQDCRFRVTQLPNGRDFHMSVVRARRNDSGTYLCGAISLAPKAQAKESLRAELRVTERRAEVPTAHPSPSPRPAGQFQTLVVGVVGGLLGSLVLLVWVLAVICSRAARGTIGARRTGQPLKEDPSAVPVFSVDYGELDFQWREKTPEPPVPCVPEQTEYATIVFPSGMGTSSPARRGSADGPRSAQPLRPEDGHCSWPL [chain 2 I110A],~70
2,chain 2 LDSPDRPWNPPTFSPALLVVTEGDNATFTCSFSNTSESFVLNWYRMSPSNQTDKLAAFPEDRSQPGQDCRFRVTQLPNGRDFHMSVVRARRNDSGTYLCGAISLAPKAQIKASLRAELRVTERRAEVPTAHPSPSPRPAGQFQTLVVGVVGGLLGSLVLLVWVLAVICSRAARGTIGARRTGQPLKEDPSAVPVFSVDYGELDFQWREKTPEPPVPCVPEQTEYATIVFPSGMGTSSPARRGSADGPRSAQPLRPEDGHCSWPL [chain 2 E112A],~140

# Second part, the variant after the results:
row,percent of parent [% WT],Variant
1,~190,chain 2 LDSPDRPWNPPTFSPALLVVTEGDNATFTCSFSNTSESFVLNWYRMSPSNQTDKLAAFPEDRSQPGQDCRFRVTQLPNGRDFHMSVVRARRNDSGTYLCGAISAAPKAQIKESLRAELRVTERRAEVPTAHPSPSPRPAGQFQTLVVGVVGGLLGSLVLLVWVLAVICSRAARGTIGARRTGQPLKEDPSAVPVFSVDYGELDFQWREKTPEPPVPCVPEQTEYATIVFPSGMGTSSPARRGSADGPRSAQPLRPEDGHCSWPL [chain 2 L104A]
2,~160,chain 2 LDSPDRPWNPPTFSPALLVVTEGDNATFTCSFSNTSESFVLNWYRMSPSNQTDKLAAFPEDRSQPGQDCRFRVTQLPNGRDFHMSVVRARRNDSGTYLCGAISRAPKAQIKESLRAELRVTERRAEVPTAHPSPSPRPAGQFQTLVVGVVGGLLGSLVLLVWVLAVICSRAARGTIGARRTGQPLKEDPSAVPVFSVDYGELDFQWREKTPEPPVPCVPEQTEYATIVFPSGMGTSSPARRGSADGPRSAQPLRPEDGHCSWPL [chain 2 L104R]
3,~1,chain 2 LDSPDRPWNPPTFSPALLVVTEGDNATFTCSFSNTSESFVLNWYRMSPSNQTDALAAFPEDRSQPGQDCRFRVTQLPNGRDFHMSVVRARRNDSGTYLCGAISLAPKAQIKESLRAELRVTERRAEVPTAHPSPSPRPAGQFQTLVVGVVGGLLGSLVLLVWVLAVICSRAARGTIGARRTGQPLKEDPSAVPVFSVDYGELDFQWREKTPEPPVPCVPEQTEYATIVFPSGMGTSSPARRGSADGPRSAQPLRPEDGHCSWPL [chain 2 K54A]

# Variants of: B1
# Test: flow cytometry on cells; PD-L2 Ig about 330 nM (x position estimated); read off a plot
row,response [MFI],Variant
1,~3,chain 2 LDSPDRPWNPPTFSPALLVVTEGDNATFTCSFSNTSESFVLNWYRMSPSNQTDALAAFPEDRSQPGQDCRFRVTQLPNGRDFHMSVVRARRNDSGTYLCGAISLAPKAQIKESLRAELRVTERRAEVPTAHPSPSPRPAGQFQTLVVGVVGGLLGSLVLLVWVLAVICSRAARGTIGARRTGQPLKEDPSAVPVFSVDYGELDFQWREKTPEPPVPCVPEQTEYATIVFPSGMGTSSPARRGSADGPRSAQPLRPEDGHCSWPL [chain 2 K54A]
